Source: PubChem BioAssay AID588511 (Johns Hopkins Ion Channel Center, 2011)
The entries are a selection whose mix differs from that of the whole data set. Active and inactive are the calls of the source.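 How the source made its calls: active means ratio plate-corrected score three or more library SD toward inhibition, starting fluorescence score within five deviations; inactive means the rest.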

Protein sequences, listed by entry. Tags and fused reporters are not part of them.
UniProt Q8BHY3, whole entry: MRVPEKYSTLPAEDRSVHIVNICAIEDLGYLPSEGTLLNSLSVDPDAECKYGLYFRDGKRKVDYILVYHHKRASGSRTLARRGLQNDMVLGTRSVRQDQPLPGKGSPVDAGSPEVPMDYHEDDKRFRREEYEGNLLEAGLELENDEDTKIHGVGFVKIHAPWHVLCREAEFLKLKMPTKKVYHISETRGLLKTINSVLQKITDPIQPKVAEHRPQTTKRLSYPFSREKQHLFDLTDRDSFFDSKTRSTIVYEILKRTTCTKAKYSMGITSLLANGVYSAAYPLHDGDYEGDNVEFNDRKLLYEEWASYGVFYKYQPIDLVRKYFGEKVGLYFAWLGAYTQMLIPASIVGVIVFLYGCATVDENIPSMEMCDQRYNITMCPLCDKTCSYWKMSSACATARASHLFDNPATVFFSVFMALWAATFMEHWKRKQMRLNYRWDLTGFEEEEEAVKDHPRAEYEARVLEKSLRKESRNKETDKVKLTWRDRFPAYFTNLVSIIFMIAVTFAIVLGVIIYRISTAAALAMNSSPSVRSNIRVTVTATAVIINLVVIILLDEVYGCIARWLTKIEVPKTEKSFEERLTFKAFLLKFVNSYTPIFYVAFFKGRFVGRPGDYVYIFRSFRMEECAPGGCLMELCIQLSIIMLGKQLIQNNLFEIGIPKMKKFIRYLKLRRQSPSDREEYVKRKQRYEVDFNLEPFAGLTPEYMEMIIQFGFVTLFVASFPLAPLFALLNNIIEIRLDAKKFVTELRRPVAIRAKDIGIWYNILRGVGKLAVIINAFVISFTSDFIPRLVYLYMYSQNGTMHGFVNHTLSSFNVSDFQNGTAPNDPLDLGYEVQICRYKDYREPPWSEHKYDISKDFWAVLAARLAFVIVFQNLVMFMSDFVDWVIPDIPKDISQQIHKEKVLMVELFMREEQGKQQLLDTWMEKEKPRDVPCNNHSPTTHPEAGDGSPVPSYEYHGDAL

The compounds below were run against Anoctamin-1 (Mus musculus) (UniProt Q8BHY3) (assay: blockers of mouse ANO1 Ca-activated Cl channel – cell-based, HTS, primary screen (AID 588511)). Conditions: HEK293 TMEM16A/YFP iodide influx fluorescence, ionomycin; at 10 µM.

Row | SMILES | outcome
1 | CCCOc1ccc(NP(C)(=O)Oc2ccc(Cl)cc2)cc1 (stereo unspecified) | inactive
2 | COc1cc(C2NCCC3(OCCO3)C2(C)C)cc(OC)c1OC.O=[N+]([O-])c1cc([N+](=O)[O-])c(O)c([N+](=O)[O-])c1 (stereo unspecified) | inactive
3 | Cc1nn(-c2ccccc2)c2c1P(=O)(N1CCOCC1)N(C)C(c1ccccc1)=N2 (stereo unspecified) | inactive
4 | CC1CCC(C(C)C)C(OP(=O)(Nc2ccccn2)c2ccccc2)C1 (stereo unspecified) | inactive
5 | Cc1ccc(C(=O)OC2CN3CCC2CC3)cc1 (stereo unspecified) | inactive
6 | O=C(/C=C/c1ccccc1)OC1CN2CCC1CC2 (stereo unspecified) | inactive
7 | O=[N+]([O-])c1cc([N+](=O)[O-])c(Nc2nnnn2CCO)c([N+](=O)[O-])c1 | inactive
8 | CN(C)C1(CNC(=O)c2ccc(S(C)(=O)=O)cc2)CCCCC1 | inactive
9 | CC1=C2N=C(C=C3N=C(C(C)=C4[N-][C@@](C)([C@@H]5N=C1[C@](C)(CCC(=O)NC[C@@H](C)OP(=O)([O-])O[C@H]1[C@@H](O)[C@@H](n6cnc7cc(C)c(C)cc76)O[C@@H]1CO)[C@H]5CC(N)=O)[C@@](C)(CC(N)=O)[C@@H]4CCC(N)=O)[C@@](C)(CC(N)=O)[C@@H]3CCC(N)=O)C(C)(C)[C@@H]2CCC(N)=O.[C-]#N.[Co+3] | inactive
10 | CCOC(=O)C(CC)C1=NC(C)(C)Cc2ccccc21.O=[N+]([O-])c1cc([N+](=O)[O-])c(O)c([N+](=O)[O-])c1 (stereo unspecified) | inactive
11 | NC(=O)Nc1ccc([As](=O)(O)O)cc1 | inactive
12 | CN(C)C(=O)c1cc([N+](=O)[O-])cc2c1-c1c(cc([N+](=O)[O-])cc1[N+](=O)[O-])C2=O | inactive
13 | O=[N+]([O-])c1ccc2c(c1)nnn2O | inactive
14 | CN(C(=O)Cc1ccc(Cl)c(Cl)c1)[C@H]1CC[C@@]2(CCCO2)C[C@@H]1N1CCCC1 | inactive
15 | CC1=NCCc2c1[nH]c1ccccc21.O=[N+]([O-])c1cc([N+](=O)[O-])c(O)c([N+](=O)[O-])c1 | inactive
16 | N#CCCN(C(=O)COC(=O)C(O)(c1ccccc1)c1ccccc1)c1ccc(F)cc1 | inactive
17 | CN(C(=O)Cc1ccccc1)[C@@H]1CC[C@]2(CCCO2)C[C@H]1N1CCCC1 | inactive
18 | CCOP1(=S)c2c(C)nn(CCC#N)c2N=C(c2ccc(F)cc2)N1C (stereo unspecified) | inactive
19 | CS(=O)(=O)c1cc([N+](=O)[O-])c2no[n+]([O-])c2c1 | inactive
20 | CCOP1(=S)c2c(C)nn(CCC#N)c2N=C(c2ccccc2F)N1C (stereo unspecified) | inactive
21 | O=C(O)c1cccc(Nc2c([N+](=O)[O-])cc([N+](=O)[O-])cc2[N+](=O)[O-])c1 | inactive

Row | SMILES | outcome
22 | O=P(Nc1nccs1)(c1ccccc1)c1nc2ccccc2s1 (stereo unspecified) | inactive
23 | O=P(Nc1nccs1)(Oc1ccccc1)Oc1ccccc1 | inactive
24 | Nc1ccccc1[As](=O)(O)c1ccccc1 | inactive
25 | O=C(O)COc1ccc([As](=O)(O)O)cc1[N+](=O)[O-] | inactive
26 | CCCOP(=S)(Nc1nc(N)cc(=O)[nH]1)OCCC | inactive
27 | Cc1ccc(C)c(NP(C)(=O)Oc2ccccc2)c1 (stereo unspecified) | inactive
28 | CP(=O)(Nc1cccc(Br)c1)Oc1ccccc1 (stereo unspecified) | inactive
29 | Cc1cc(C)cc(OP(C)(=O)Nc2ccccn2)c1 (stereo unspecified) | inactive
30 | Cc1ccc(NCCc2c([N+](=O)[O-])cc([N+](=O)[O-])cc2[N+](=O)[O-])cc1 | inactive
31 | Nc1cccc2c([As](=O)(O)O)cccc12 | inactive
32 | CCOP(=O)(Nc1cccc2ccccc12)OCC | inactive
33 | COc1cc(C(=O)NCC2(N3CCOCC3)CCCCC2)cc(Cl)c1OC(C)C | inactive
34 | O=[As](O)(O)c1cccnc1 | inactive
35 | COc1ccccc1OP(C)(=O)Nc1cccc(Br)c1 (stereo unspecified) | inactive
36 | CS(=O)(=O)c1ccc(Cl)c(NC(=O)COC(=O)C(O)(c2ccccc2)c2ccccc2)c1 | inactive
37 | O=C(OC1CN2CCC1CC2)c1ccc(Cl)cc1 (stereo unspecified) | inactive
38 | CCOC(=O)c1ccc(NP(C)(=O)Oc2cc(C)cc(C)c2)cc1 (stereo unspecified) | inactive
39 | O=[As](O)(c1cccc(O)c1)c1cccc(O)c1 | inactive
40 | Cc1cccc(OCC(=O)OC2CN3CCC2CC3)c1 (stereo unspecified) | inactive
41 | Cc1cc(C)cc(OP(C)(=O)Nc2ccc(C)cc2C)c1 (stereo unspecified) | inactive
